Measured values as given in patent US20200102400A1.

By UniProt entry, the sequences of proteins in these tests, tags left out. Residues count along the entry.
UniProt P08637, 17-208 F176V: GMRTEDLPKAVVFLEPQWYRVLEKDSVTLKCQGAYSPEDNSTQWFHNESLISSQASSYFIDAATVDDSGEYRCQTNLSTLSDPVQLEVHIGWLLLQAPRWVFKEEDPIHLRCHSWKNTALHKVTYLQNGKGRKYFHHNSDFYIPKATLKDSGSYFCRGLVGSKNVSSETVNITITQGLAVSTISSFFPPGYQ
UniProt P02745, 23-245, chain 1 of 3: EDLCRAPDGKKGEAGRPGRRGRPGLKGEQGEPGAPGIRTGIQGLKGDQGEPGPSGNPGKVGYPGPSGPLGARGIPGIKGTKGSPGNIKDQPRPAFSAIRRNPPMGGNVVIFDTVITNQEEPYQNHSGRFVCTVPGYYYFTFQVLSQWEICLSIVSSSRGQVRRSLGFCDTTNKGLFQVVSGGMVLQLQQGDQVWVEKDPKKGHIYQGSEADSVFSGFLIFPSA
UniProt P31994, 43-217: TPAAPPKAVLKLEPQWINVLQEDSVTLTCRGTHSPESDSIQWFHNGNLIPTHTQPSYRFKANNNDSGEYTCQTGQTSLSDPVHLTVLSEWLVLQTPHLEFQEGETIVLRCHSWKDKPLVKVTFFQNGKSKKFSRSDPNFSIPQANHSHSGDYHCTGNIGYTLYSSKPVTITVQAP

Assays:
[1] = target: FcγRIIIa-V158-GST (dimeric FcγRIIIaV158) (human) (UniProt P08637); assay: FACS, cell display, 100 nM FcγRIIIaV158-GST-PE
[2] = target: FcγRIIIa-V158-GST (dimeric FcγRIIIaV158) (human) (UniProt P08637); assay: FACS, 100 nM FcγRIIIaV158-GST-PE; vs Aglyco IgG
[3] = target: C1q protein from human serum (human) (UniProt P02745); assay: FACS, cell display, 10 nM C1q-PE
[4] = target: FcγRIIb-GST (dimeric FcγRIIb) (human) (UniProt P31994); assay: FACS, cell display, 100 nM FcγRIIb-GST-PE
[5] = target: C1q protein from human serum (human) (UniProt P02745); assay: FACS, 10 nM C1q-PE; vs Aglyco IgG
[6] = target: FcγRIIb-GST (dimeric FcγRIIb) (human) (UniProt P31994); assay: FACS, 100 nM FcγRIIb-GST-PE; vs Aglyco IgG

Substance | MFI [1] | Increasing Fold [2] | MFI [3] | MFI [4] | Increasing Fold [5] | Increasing Fold [6]
Fc-V1 IgG variant (displayed) (antibody) | 123 | 32.3 fold |  |  |  | 
Fc-V12 IgG variant (displayed) (antibody; other documents disagree on this pair) |  |  | 1040 | 7.9 | 44.1 fold | 1.76 fold
Fc-V24 IgG variant (displayed) (antibody; other documents disagree on this pair) |  |  | 1140 | 9.4 | 48.7 fold | 2.09 fold
Fc-V11 IgG variant (displayed) (antibody; other documents disagree on this pair) |  |  | 1120 | 8.1 | 47.8 fold | 1.8 fold
Fc-V18 IgG variant (displayed) (antibody) | 176 | 46.5 fold |  |  |  | 
Fc-V19 IgG variant (displayed) (antibody; other documents disagree on this pair) |  |  | 1330 | 6.9 | 56.8 fold | 1.53 fold
Fc-V23 IgG variant (displayed) (antibody; other documents disagree on this pair) |  |  | 1210 | 10.5 | 51.5 fold | 2.33 fold
Fc-V12 IgG variant (displayed) (antibody) | 176 | 46.5 fold |  |  |  | 
Fc-V19 IgG variant (displayed) (antibody) | 167 | 43.9 fold |  |  |  | 
Fc-V24 IgG variant (displayed) (antibody) | 130 | 34.2 fold |  |  |  | 
Fc-V26 IgG variant (displayed) (antibody) | 136 | 35.8 fold |  |  |  | 
Fc-V15 IgG variant (displayed) (antibody; other documents disagree on this pair) |  |  | 1310 | 11.8 | 55.5 fold | 2.62 fold
Fc-V15 IgG variant (displayed) (antibody) | 129 | 34 fold |  |  |  | 
Fc-V23 IgG variant (displayed) (antibody) | 136 | 35.9 fold |  |  |  | 
Fc-V18 IgG variant (displayed) (antibody; other documents disagree on this pair) |  |  | 1050 | 9.8 | 44.5 fold | 2.18 fold
Fc-V26 IgG variant (displayed) (antibody; other documents disagree on this pair) |  |  | 1210 | 7.5 | 51.5 fold | 1.67 fold
Fc-V11 IgG variant (displayed) (antibody) | 159 | 41.7 fold |  |  |  | 
Fc-V1 IgG variant (displayed) (antibody; other documents disagree on this pair) |  |  | 1050 | 6.8 | 44.8 fold | 1.51 fold
